Legend:
[1] = organism: Homo sapiens; test: Selectivity ratio of IC50 for CDK2 (unknown origin) to IC50 for CDK9/Cyclin T1 (unknown origin)
[2] = organism: Homo sapiens; test: Selectivity ratio of IC50 for CDK6 (unknown origin) to IC50 for CDK9/Cyclin T1 (unknown origin)
[3] = organism: Homo sapiens; test: Selectivity ratio of IC50 for CDK7 (unknown origin) to IC50 for CDK9/Cyclin T1 (unknown origin)

A Ratio IC50 [1] of 180, a Ratio IC50 [2] of 180 and a Ratio IC50 [3] of 30 were found for `Cc1n[nH]c2ccc(-c3cc(N[C@@H](CO)c4ccccc4)cnc3Cl)cc12` in this work.

Reference: ChEMBL document CHEMBL4840335, “Rational Design and Development of Novel CDK9 Inhibitors for the Treatment of Acute Myeloid Leukemia” (J Med Chem, 2021)
